# scFv variants of Ab-14 (light chain) against a SARS-CoV-2 spike peptide

From the AlphaSeq antibody data of Li et al. 2023 (doi:10.1038/s41467-023-39022-2), copy in the FLAb collection.

Antigen: PDVDLGDISGINAS, a 14-residue peptide of the SARS-CoV-2 spike HR2 region.

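The parent was found by panning a naive human phage display library on the peptide. Designed CDR sequences, proposed from the first random library and measured here. Group labels follow the data file (En: ensemble of fine-tuned language models; GP: Gaussian process model; HC: hill climbing; Gen: genetic algorithm; Gibbs: Gibbs sampling; a sequence that several methods proposed may carry one label only). The assay is AlphaSeq: two haploid yeast populations carry antibody and antigen on their surface. Mating (16 h, 30 °C) was followed by selection of diploids and sequencing of their barcodes. Read counts were normalised to the haploid input and turned into Kd by a linear fit to BCL2-family pairs of known affinity, for each replicate. The assay was run in six technical replicates.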

Parent: Ab-14, a human scFv built as VH, a (GGGGS)3 linker, VL. Only the CDRs of the light chain vary.
VH: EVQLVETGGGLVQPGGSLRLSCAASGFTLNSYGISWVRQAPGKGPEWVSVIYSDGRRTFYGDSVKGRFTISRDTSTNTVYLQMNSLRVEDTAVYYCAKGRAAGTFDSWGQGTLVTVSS
VL: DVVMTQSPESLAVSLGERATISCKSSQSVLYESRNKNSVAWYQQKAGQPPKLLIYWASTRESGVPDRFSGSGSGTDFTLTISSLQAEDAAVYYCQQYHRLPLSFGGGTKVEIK

The parent's light chain CDRs are KSSQSVLYESRNKNSVA, WASTRES, QQYHRLPLS; each variant's own CDRs replace them letter for letter.
Variants here have more than six changes.
The read-out is the apparent dissociation constant on a log10 scale (nM): the lower, the stronger.
The mean shown is taken over the replicates in which the pair was detected.
Where no diploid with the target was found in that replicate, the entry reads "nd": below detection, most likely a poor binder, though not proof of it.
The list is sorted by this average, lowest first, undetected variants last.
As a blank, each scFv also met three strains without target: over all light chain designs, 4% of these pairings were detected, typically at 2.64 and seldom below 1.59.
The range of this assay differs from that of the first round, and the authors advise against merging the two.
The authors' rule: three or more of the six replicates give a measured affinity, fewer mean a poor binder.
The parent sequence was in this pool as ten entries: three were never detected, three once, and four in most replicates, with averages from 0.34 to 2.37.

With KLQQSVQYESRNQNAVA | EASQREE | QQYHRLPLS [GP_Gibbs] the result was -0.20, -0.41, -0.36, -0.55, -0.40, -0.27 (mean -0.37). The variant KLESRQYQFGANHQNIA | DATDSMN | QQYMHLPFT [En_Gibbs] gave -0.20, -0.17, -0.36, -0.44, -0.49, -0.14 (mean -0.30). The variant KVQQSELGLSRNKNSVA | EASKRED | QQYHRLPLS [GP_Gibbs] gave -0.15, -0.26, -0.23, -0.45, -0.21, -0.27 (mean -0.26). With KISQSEYYEDANKMSVA | SASTRLS | QQYHRLPLS [GP_Gibbs] the result was 0.15, -0.11, -0.19, -0.33, -0.23, -0.11 (mean -0.13). With RLNVFQNVITQQNNNIA | QAEQKVH | QQYMRLPLY [En_Gibbs] the result was 0.17, -0.08, 0.06, -0.12, -0.36, -0.05 (mean -0.06). The variant KLQQSMWYESRNKNSVA | SASQREV | QQYHRLPLS [GP_Gibbs] showed 0.03, -0.19, -0.02, -0.09, -0.08, 0.16 (mean -0.03).

With KMSQSVPYEDRNWNSVA | NASKRLS | QQYHRLPLS [GP_Gibbs] the result was 0.32, -0.12, 0.04, -0.24, 0.15, -0.08 (mean 0.01). For KISQSALMEPRNKNSVA | NASQRQM | QQYHRLPLS [GP_Gibbs], the assay gave -0.06, 0.18, 0.06, -0.16, -0.07, 0.22 (mean 0.03). The variant FLEQSTLYESRNKNSVA | NASLRCS | QQYHRLPLS [GP_Gibbs] showed 0.21, 0.19, 0.02, -0.09, 0.10, 0.11 (mean 0.09). For HVAMELAEEKNSYRNIA | DASMRLA | QQYVRLPLG [En_Gibbs], the assay gave 0.41, 0.33, -0.05, -0.10, 0.11, 0.33 (mean 0.17). For KVSQGGLYEQRQKNSVA | NASYRES | QQYHRLPLS [GP_Gibbs], the assay gave 0.35, 0.21, 0.18, 0.11, 0.19, 0.21 (mean 0.21). The variant HISMSMNWLTRNKNSIA | EESTRED | QQYFRLPLS [En_HC] gave 0.30, 0.19, 0.22, 0.00, 0.02, 0.59 (mean 0.22).

The variant KLSMGVDYGDRNKNQVA | HASTRES | QQYHRLPLS [GP_Gibbs] showed 0.25, 0.29, 0.17, 0.14, 0.17, 0.45 (mean 0.25). The variant KLALITGLEKVSNNNVA | EMETRER | QQYNRLPLS [En_Gen] showed 0.57, -0.02, 0.39, 0.14, 0.10, 0.77 (mean 0.33). The variant SMSNLQINPDVWKNSIA | DAEHVEY | QQYSRLPLT [En_Gibbs] gave 0.59, 0.51, 0.20, 0.18, 0.00, 0.48 (mean 0.33). The variant TLTQVQGMESHNKNSVA | DLSMRGS | QQYHRLPLS [En_HC] showed 0.41, 0.57, 0.40, 0.25, 0.03, 0.53 (mean 0.36). The variant TLVGNIQGGGWAKKNVA | DAVMRVN | QQYYRLPLS [En_Gibbs] showed 0.63, 0.47, 0.26, 0.12, 0.26, 0.57 (mean 0.38). With MISMEEAPAGQQESSIA | HGGTRAE | QQYNRLPLC [En_Gibbs] the result was 0.51, 0.52, 0.41, 0.21, 0.37, 0.32 (mean 0.39).

With HMNKFMSEIGGARNSIA | GADTLAQ | QHYHRLPLS [En_Gibbs] the result was 0.58, 0.69, 0.15, 0.10, 0.39, 0.57 (mean 0.42). For KLSGIMRLEQKKSNSIA | EVNERSE | QQYDRLPLS [En_Gen], the assay gave 0.76, -0.06, 0.36, 0.11, 0.58, 0.81 (mean 0.43). The variant KSSWGVDDESRNDNQVA | KASTRLS | QQYHRLPLS [GP_Gibbs] gave 0.55, 0.53, 0.48, 0.25, 0.43, 0.40 (mean 0.44). The variant KLSMITGHQLMSKNNVA | EMVTREN | QQYNRLPLS [En_Gen] gave 0.36, 0.28, 0.46, 0.79, 0.34, 0.42 (mean 0.44). The variant KLGGVTSYEMQTKNSVA | QMTTRES | QQYHRLPLS [En_HC] showed 0.88, 0.42, 0.43, 0.18, 0.35, 0.74 (mean 0.50). With TISQMSQLFSQTINNVA | EVSTRLN | QQYDRLPLV [En_Gen] the result was 0.73, 0.90, 0.67, 0.59, 0.67, 0.63 (mean 0.70).

With KLSQVTNSEHKVKNSIA | EMVTREE | QQYDRLPLE [En_HC] the result was 0.74, 0.75, 0.52, 0.71, 0.65, 0.96 (mean 0.72). The variant NLSWKTEMQNMDSYAVA | QTEQREA | QQYAILPLS [En_Gibbs] gave 0.96, 0.66, 0.59, 0.75, 0.74, 0.82 (mean 0.75). The variant HVAMECAEEKNSYRNIA | DASMRLA | QQYVRLPLG [En_Gibbs] gave 0.55, 0.72, 1.21, 1.03, 0.22, 1.17 (mean 0.82). The variant KLQQSMEYESRWHNSVA | HASVRLD | QQYHRLPLS [GP_Gibbs] showed 1.05, 0.82, 0.60, 0.62, 1.06, 1.08 (mean 0.87). The variant KLTEPMASWRGARHNIA | DRTVTAP | QQYSRLPIT [En_Gibbs] gave 0.92, 0.96, 0.86, 1.00, 1.07, 0.81 (mean 0.94). For MVYQATMMGTVTRNSIA | NAQMRPD | QQYHRLPLI [En_Gen], the assay gave 1.09, 0.91, 2.15, 0.57, 0.46, 0.83 (mean 1.00).

For NLVGRVEDNYTERNAIA | DMHCRAG | QQYSRLPLS [En_Gibbs], the assay gave 1.00, 1.14, 1.18, 1.01, 1.00, 1.51 (mean 1.14). The variant KWSISDLQGDRNKNSVA | HASCREQ | QQYHRLPLS [GP_Gibbs] showed 1.08, 1.51, 1.04, 1.07, 1.14, 1.13 (mean 1.16). The variant KLDYLNGYSDIGGDSIA | DVSTAGM | QQYIRLPLS [En_Gibbs] gave 1.90, 0.94, 1.31, 0.57, 1.44, 1.60 (mean 1.29). The variant KISQMVRVGSTVNNSIA | EEQTRAK | QQYHRLPLS [En_Gen] showed 1.42, 1.41, 0.89, 1.54, 1.28, 1.47 (mean 1.33). For VLSDTIENQYDEADNIA | DATETSK | QQYARLPLS [En_Gibbs], the assay gave 1.13, 1.03, 2.40, 1.93, 0.57, 1.22 (mean 1.38). With TIGASLMYGSRNRSNVA | EVSERLN | QQYDRLPLL [En_Gen] the result was 1.79, 0.98, 1.34, 1.42, 1.63, 1.55 (mean 1.45).

With MISQLFMYGSRNYNSVA | QASERES | QQYDRLPLI [En_HC] the result was 1.73, 1.06, 1.50, 1.52, 1.43, 1.51 (mean 1.46). With IVSQLMLWGHLAKNSIA | EAQTRLN | QQYDRLPLM [En_Gen] the result was 2.10, 1.38, 0.67, 2.21, 1.24, 1.61 (mean 1.54). The variant KVSEFMKGLMMRTDSIA | DNVTRNS | QQYDRLPLS [En_Gen] gave 1.53, 1.50, 1.61, 1.58, 1.81, 1.78 (mean 1.64). The variant HLLQTVMYGSTRKNSVA | HAVTREN | QQYHRLPLS [En_HC] showed 1.85, 2.00, 1.41, 1.64, 1.22, 1.81 (mean 1.65). The variant TIGQTLMQGIRNRSNVA | EVSQRLN | QQYDRLPLL [En_Gen] gave 1.73, 1.61, 1.35, 1.18, 2.59, 1.83 (mean 1.72). For MISQLFMYGSRNYNSIA | QASTREK | QQYDRLPLI [En_HC], the assay gave 2.46, 1.31, 1.65, 1.94, 1.95, 1.03 (mean 1.72).

For IISGSMLMESRNKNSVA | NAEEREY | QHYDRLPLS [En_HC], the assay gave 1.91, 1.71, 1.77, 1.56, 1.61, 1.99 (mean 1.76). With MLTWGDDHTTGHQNAIA | HAHERNT | QQYAQLPLT [En_Gibbs] the result was 2.91, 1.81, nd, 1.07, 1.62, nd (mean 1.85). The variant TIGGTLMYGYRNRSNVA | EVSERLN | QQYDRLPLM [En_Gen] showed 1.61, 2.84, 1.36, 2.44, 1.70, 1.33 (mean 1.88). The variant KISGYLNKESKLKNSVA | EMVNRES | QQYDRLPLS [En_HC] gave 2.23, 1.69, 1.55, 1.36, 2.55, 2.59 (mean 1.99). With KLSMLTETEHVNRNSVA | ELVTRMS | QQYNRLPLS [En_Gen] the result was nd, 2.53, 1.37, 1.93, nd, 2.51 (mean 2.08). For MISQLQNMGQFAINSVA | QASLRND | QQYDRLPLT [En_Gen], the assay gave 1.85, 2.56, 2.64, 2.22, 1.51, 2.08 (mean 2.15).

For QLEWDQLWGANYDYSVA | AQDVILP | QQYDRLPLI [En_Gibbs], the assay gave nd, nd, nd, 2.35, nd, nd. For MFEEYQSEGGANNNNVA | DHECGIR | QQYYRLPLT [En_Gibbs], the assay gave nd, nd, nd, nd, nd, nd. The variant MMLSHSVEVQNIQNAVA | EASMVYD | QQYVSLPLS [En_Gibbs] gave nd, nd, nd, nd, nd, nd.

The closing 5 entries, repeated:

With KLSMLTETEHVNRNSVA | ELVTRMS | QQYNRLPLS [En_Gen] the result was nd, 2.53, 1.37, 1.93, nd, 2.51 (mean 2.08).
With MISQLQNMGQFAINSVA | QASLRND | QQYDRLPLT [En_Gen] the result was 1.85, 2.56, 2.64, 2.22, 1.51, 2.08 (mean 2.15).
With QLEWDQLWGANYDYSVA | AQDVILP | QQYDRLPLI [En_Gibbs] the result was nd, nd, nd, 2.35, nd, nd.
With MFEEYQSEGGANNNNVA | DHECGIR | QQYYRLPLT [En_Gibbs] the result was nd, nd, nd, nd, nd, nd.
With MMLSHSVEVQNIQNAVA | EASMVYD | QQYVSLPLS [En_Gibbs] the result was nd, nd, nd, nd, nd, nd.